Ab-14 heavy chain CDR variants: yeast mating affinities

Source: Engelhart et al. 2022 (doi:10.1038/s41597-022-01779-4), MIT Lincoln Laboratory and A-Alpha Bio; data file from the FLAb repository.

Target: peptide PDVDLGDISGINAS, taken from heptad repeat 2 (HR2) of SARS-CoV-2 spike.

Ab-14 is the parent antibody, in scFv form: VH, then three GGGGS repeats, then VL. The light chain is unchanged in all variants.
VH: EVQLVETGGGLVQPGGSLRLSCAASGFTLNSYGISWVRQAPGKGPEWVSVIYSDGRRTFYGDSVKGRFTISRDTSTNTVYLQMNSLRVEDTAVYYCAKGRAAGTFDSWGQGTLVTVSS
VL: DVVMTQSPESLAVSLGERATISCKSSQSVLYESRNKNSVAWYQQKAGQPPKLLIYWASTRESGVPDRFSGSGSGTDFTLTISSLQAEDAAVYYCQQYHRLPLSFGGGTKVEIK

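The starting antibody came from a phage panning campaign against this peptide. In library AAYL49, one, two or three CDR residues were substituted; doubles and triples were drawn at random. In AlphaSeq, yeast of one mating type display the scFv and yeast of the other type display the target. Pairs that bind mate more often; barcode pairs of the diploids are counted by sequencing. The ratio of observed to expected reads was calibrated, replicate by replicate, on BCL2-family standards whose Kd was known from biolayer interferometry. Each pool was mated in three replicate cultures.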

Variants are written as CDR1, CDR2 and CDR3 of the heavy chain (limits as in the source). Parent: GFTLNSYGIS, VIYSDGRRTFYGDSVK, GRAAGTFDS. Numbers give log10(Kd / nM), so 0 is 1 nM and 3 is 1 µM. Smaller is tighter. Where no diploid with the target was found in that replicate, the entry reads "nd": below detection, most likely a poor binder, though not proof of it. Nonspecific signal, from three strains lacking the peptide, appeared in 15% of pairings of library AAYL49, centred on 4.06 (5% of these signals below 2.83); values are not corrected for it. Also given: how often the same scFv was detected with the empty control strains, with their mean in brackets.

CDR-H1	CDR-H2	CDR-H3	log10 Kd (nM) by replicate	control signals
GFTLNSYGIS	VDYSDGRRTFYADSLK	GRAAGTFDS	nd nd nd	0/9
GFTLNSYGIS	VHYSDGTRVFYGDSVK	GRAAGTFDS	nd 3.48 4.71	5/9 (4.63)
GFTLNSYCIS	VIYSDRRRTFYGDSVK	GRAANTFDS	nd nd nd	0/9
GFTLNRYGIS	VIYSDGRRTFYGKSVK	GRTAGTFDS	nd nd 3.66	2/9 (4.38)
GYTLNSYGIS	MIYSDGRRTFYGDSMK	GRAAGTFDS	nd nd nd	0/9
GFTLSSYGIS	VIYSGGRRTFYGDSVK	GRANGTFDS	nd nd nd	0/9
GFTLNGYGIS	VIYSDGRRSFYGDSVK	CRAAGTFDS	nd nd nd	1/9 (4.22)
GFTLNVYGIS	VCYYDGRRTFYGDSVK	GRAAGTFDS	nd 4.82 4.73	2/9 (3.64)
GFTLNSYGIS	VRYSDGRITFYGDSVK	GRTAGTFDS	nd nd nd	0/9
GFTLNSYGIS	VIYSDGRRTFKSDSVK	GRAAGTSDS	nd nd nd	2/9 (3.95)
GFTLNSYGIS	IIYSDGRRTFYVDSVK	GRAAGDFDS	nd nd nd	3/9 (3.57)
GFTLNSYAIS	VIYSDGRFTFTGDSVK	GRAAGTFDS	nd nd nd	0/9
GFLLNSYGIS	VIYSDGRNTFYGLSVK	GRAAGTFDS	4.48 3.84 nd	3/9 (3.78)
GFTLESYGIS	VIYSDGRRTFENDSVK	GRAAGTFDS	3.82 3.45 3.26	1/9 (3.57)
GFTLNSYGIS	VIYSDGRRTFYNDNVK	GRAAGTFDV	0.11 0.40 0.18	2/9 (4.07)
WFTLNHYGIS	VIYSDGRRTFYGDSVK	GRAAGTFRS	nd nd nd	0/9
GFTLNSYIIS	VIYSDGRRTFWCDSVK	GRAAGTFDS	4.21 nd 3.42	2/9 (3.82)
GFTLNSYCIS	VIYSDGRRAFYGYSVK	GRAAGTFDS	3.94 4.69 6.72	5/9 (4.38)
GFTLNSYGIS	VIYSDGRRTFYGPSVN	GRAAGQFDS	4.50 3.63 nd	0/9
GSTLNSYGIS	VIYSDGRRTFYGDSKK	GRAAGTFDF	nd 3.22 nd	1/9 (2.54)
GCGLNSLGIS	VIYSDGRRTFYGDSVK	GRAAGTFDS	3.77 nd 3.64	3/9 (4.70)
GFTPNSYGIS	VIYSDGRRTFYGDSVK	GRAAGVFQS	5.28 4.62 nd	0/9
GFTLNCYGIS	VIYSDGRRTFYGDSYK	GRAAGTFDL	nd 3.58 3.20	1/9 (3.54)
GATENSYGIS	VIYSDGRRTFYGDSVK	GRAAGTFDS	nd 3.81 nd	2/9 (3.60)
FFTLNSYGIS	VQYSDGRRTFYGDSVK	GAAAGTFDS	nd nd nd	1/9 (3.76)
GFTLNSYGIS	VIYSGGRRTFYGGSVK	GRAAGTFVS	nd 3.60 nd	3/9 (4.15)
GTTLNSYGIS	VIYSDGRRTFYGDSDQ	GRAAGTFDS	nd nd nd	3/9 (5.06)
GFTLNSYGIS	LNYSDGRRTFYGDSVY	GRAAGTFDS	nd nd nd	3/9 (3.80)
GFTLNSRWIS	VIYSDGCRTFYGDSVK	GRAAGTFDS	nd nd nd	1/9 (3.44)
GFTLNSYGIS	VIYSDGRRTFYGDSVK	GYVHGTFDS	0.33 0.85 0.26	0/9

The last 2 entries again:

CDR-H1	CDR-H2	CDR-H3	log10 Kd (nM) by replicate	control signals
GFTLNSRWIS	VIYSDGCRTFYGDSVK	GRAAGTFDS	nd nd nd	1/9 (3.44)
GFTLNSYGIS	VIYSDGRRTFYGDSVK	GYVHGTFDS	0.33 0.85 0.26	0/9

In this assay the parent's reference entry averaged 0.65; its copy inside this library read 4.11 (one replicate of three).